In this experiment the target is MELK (maternal embryonic leucine zipper kinase) (Homo sapiens, UniProt Q14680). The experiment is described as follows: in vitro kinase assay with MELK protein (IC50); also […]-ATP kinase assay with recombinant MELK at […]. The experiment is classed as biochemical.

By UniProt entry, the sequences of proteins in these tests, tags left out. Where a name states a change or a piece, a line headed by the entry shows the natural chain unless it says otherwise.
UniProt Q14680: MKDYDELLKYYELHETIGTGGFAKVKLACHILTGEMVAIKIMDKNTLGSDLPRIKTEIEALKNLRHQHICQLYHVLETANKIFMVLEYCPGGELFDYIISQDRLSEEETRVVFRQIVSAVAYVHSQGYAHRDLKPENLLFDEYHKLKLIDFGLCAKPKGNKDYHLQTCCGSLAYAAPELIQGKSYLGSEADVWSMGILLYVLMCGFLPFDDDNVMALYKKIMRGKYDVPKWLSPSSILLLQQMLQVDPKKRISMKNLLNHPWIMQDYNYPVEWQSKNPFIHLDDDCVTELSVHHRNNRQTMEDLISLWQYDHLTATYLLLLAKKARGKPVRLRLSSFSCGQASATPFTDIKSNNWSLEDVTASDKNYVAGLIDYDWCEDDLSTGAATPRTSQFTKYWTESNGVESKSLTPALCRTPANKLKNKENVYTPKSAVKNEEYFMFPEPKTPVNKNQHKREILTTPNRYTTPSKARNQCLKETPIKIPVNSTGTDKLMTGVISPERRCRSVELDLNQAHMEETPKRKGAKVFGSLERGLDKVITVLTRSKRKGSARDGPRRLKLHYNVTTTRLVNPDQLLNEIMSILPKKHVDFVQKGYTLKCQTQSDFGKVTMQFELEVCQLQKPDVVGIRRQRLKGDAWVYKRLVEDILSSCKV

For the compound `CC(=O)c1cnc2ccc(-c3cc(Cl)c(O)c(Cl)c3)nc2c1N[C@H]1CC[C@H](CN(C)C)CC1` [OTSSP167, 1-(6-(3,5-dichloro-4-hydroxyphenyl)-4-((trans-4-((dimethylamino)methyl)cyclohexyl)amino)-1,5-naphthyridin-3-yl)ethanone], the IC50 was determined as 0.41 nM.

By IC50 is commonly meant the concentration that inhibits the measured activity by half.

The values above are taken from paper PMC3681500, “Development of an orally-administrative MELK-targeting inhibitor that suppresses the growth of various types of human cancer” (Oncotarget, 2012).
